Like-named read-outs stand apart in the source and are kept apart here.
Key:
AR-LBD wt = AR-LBD wt (Homo sapiens, UniProt P10275); assay: Lanthascreen TR-FRET AR coactivator (D11-FxxLF) assay, AR-LBD wt; format: biochemical
AR-LBD T877A mutant = target: T1, AR-LBD T877A mutant (Homo sapiens, UniProt P10275, T878A); assay: TR-FRET coactivator assay, AR T877A mutant; format: biochemical
T1 construct: purchased Invitrogen PV4667

The chains behind the UniProt entries cited, without tags or fusion partners. Residues count along the entry.
UniProt P10275, 669-900 limits assumed: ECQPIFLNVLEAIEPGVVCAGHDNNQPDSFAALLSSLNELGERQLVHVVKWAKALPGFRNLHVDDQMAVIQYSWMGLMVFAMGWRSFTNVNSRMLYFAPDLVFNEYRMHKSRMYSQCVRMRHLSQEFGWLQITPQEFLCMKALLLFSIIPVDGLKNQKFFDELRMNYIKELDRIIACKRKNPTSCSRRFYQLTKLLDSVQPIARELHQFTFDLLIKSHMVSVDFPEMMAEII
UniProt P10275, 669-900 T878A: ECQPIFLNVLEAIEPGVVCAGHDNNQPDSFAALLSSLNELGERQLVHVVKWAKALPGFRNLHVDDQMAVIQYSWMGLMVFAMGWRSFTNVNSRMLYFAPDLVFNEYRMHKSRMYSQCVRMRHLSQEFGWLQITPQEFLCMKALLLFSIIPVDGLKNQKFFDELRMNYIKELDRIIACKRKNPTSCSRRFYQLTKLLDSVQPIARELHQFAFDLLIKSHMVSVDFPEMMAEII

Structure (SMILES): O=C(N/N=C/c1cccc(O)c1O)c1cc2ccccc2cc1O [MDG173]
- IC50 (AR-LBD wt): 40.8 ± 2.5 µM

Structure (SMILES): COc1cc(/C=N/NC(=O)c2cc3c(ccc4ccccc43)o2)cc(I)c1O [MDG15]
- IC50 (AR-LBD wt): 43.2 µM

Structure (SMILES): CCCOc1ccc(/C=N/NC(=O)c2cc3c(ccc4ccccc43)o2)cc1 [MDG508]
- IC50 (AR-LBD T877A mutant): 28.1 ± 6.7 µM
- IC50 (AR-LBD wt; read-out: Activity (AR wt TR-FRET)): 17.9 ± 6.9 µM
